Molecular target: T1, Delta Opioid receptor implicated in the heterodimer with Dopamine D2 (Homo sapiens, UniProt P41143)
T1 construct: membrane-addressing signal peptide T8 (printed '18') (N); expressed in transfected cells; host or cells: HEK293T/17 cells, transient co-transfection
Format: binding
Conditions: 3 nM red antagonist of the opioid receptor, D2 receptor labeled with HALO-Lumi4Tb, HEK293T cells, FIG. 10

Protein sequences, listed by entry. Tags and fused reporters are not part of them.
UniProt P41143, whole entry: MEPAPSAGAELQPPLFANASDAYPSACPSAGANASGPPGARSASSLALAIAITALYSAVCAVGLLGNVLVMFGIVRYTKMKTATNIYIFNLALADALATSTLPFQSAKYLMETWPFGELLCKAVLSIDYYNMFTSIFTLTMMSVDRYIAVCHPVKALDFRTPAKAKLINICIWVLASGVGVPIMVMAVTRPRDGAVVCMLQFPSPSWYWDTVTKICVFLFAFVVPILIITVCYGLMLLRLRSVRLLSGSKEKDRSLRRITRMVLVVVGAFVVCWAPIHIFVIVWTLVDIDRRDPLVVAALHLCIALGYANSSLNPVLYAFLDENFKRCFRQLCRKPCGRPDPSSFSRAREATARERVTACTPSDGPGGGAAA

Substance: Endomorphin I [Endomorphin 1]
- Competition with the fluorescent reference ligand and binding to the heterodimers: compete with the fluorescent reference ligand and bind to the heterodimers
